Target: GABA-A receptor; anion channel (Rattus norvegicus) (UniProt O09028+P15431+P18506+P18508+P19969+P20236+P23574+P23576+P28471+P28473+P30191+P62813+P63079+P63138+Q91ZM7+Q9ES14)
Test: Binding to GABA-A receptor complex relative to TBPS binding to picrotoxin convulsant site
Format: functional
Procedure, shortened: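 Rat brain membranes ([…]) with 2 nM [35S]TBPS in 1 M NaCl, 10 mM Tris/HCl pH 7.4, 120 min at 24 °C; drugs added from methanol (≤0.2%, constant). Filtration read-out, nonspecific binding with 2 mM unlabeled TBPS.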

By UniProt entry, the sequences of proteins in these tests, tags left out. Where a name states a change or a piece, a line headed by the entry shows the natural chain unless it says otherwise.
UniProt O09028: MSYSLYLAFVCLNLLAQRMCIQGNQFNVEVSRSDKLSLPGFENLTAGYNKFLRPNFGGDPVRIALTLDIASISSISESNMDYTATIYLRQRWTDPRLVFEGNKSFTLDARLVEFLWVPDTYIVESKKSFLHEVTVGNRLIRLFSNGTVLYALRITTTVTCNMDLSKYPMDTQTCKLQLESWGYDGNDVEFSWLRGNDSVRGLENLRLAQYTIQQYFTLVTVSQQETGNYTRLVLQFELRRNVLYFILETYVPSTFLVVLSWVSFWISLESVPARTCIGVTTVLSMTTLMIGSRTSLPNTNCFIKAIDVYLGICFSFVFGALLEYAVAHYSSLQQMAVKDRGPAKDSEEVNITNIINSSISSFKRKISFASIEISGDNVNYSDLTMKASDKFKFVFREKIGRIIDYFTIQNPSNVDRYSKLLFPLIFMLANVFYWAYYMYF
UniProt P15431: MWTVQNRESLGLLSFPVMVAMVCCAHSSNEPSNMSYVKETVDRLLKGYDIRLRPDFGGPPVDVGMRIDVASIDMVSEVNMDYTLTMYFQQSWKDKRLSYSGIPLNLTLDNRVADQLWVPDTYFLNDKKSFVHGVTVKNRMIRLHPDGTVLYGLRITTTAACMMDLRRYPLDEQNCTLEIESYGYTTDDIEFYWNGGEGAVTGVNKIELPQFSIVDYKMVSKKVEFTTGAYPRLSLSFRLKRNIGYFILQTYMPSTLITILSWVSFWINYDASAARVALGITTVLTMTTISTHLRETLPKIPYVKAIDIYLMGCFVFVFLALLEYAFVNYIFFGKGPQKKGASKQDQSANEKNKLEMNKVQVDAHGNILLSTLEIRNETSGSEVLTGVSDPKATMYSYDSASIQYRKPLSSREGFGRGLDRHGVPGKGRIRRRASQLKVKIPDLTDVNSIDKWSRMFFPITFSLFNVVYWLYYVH
UniProt P18506: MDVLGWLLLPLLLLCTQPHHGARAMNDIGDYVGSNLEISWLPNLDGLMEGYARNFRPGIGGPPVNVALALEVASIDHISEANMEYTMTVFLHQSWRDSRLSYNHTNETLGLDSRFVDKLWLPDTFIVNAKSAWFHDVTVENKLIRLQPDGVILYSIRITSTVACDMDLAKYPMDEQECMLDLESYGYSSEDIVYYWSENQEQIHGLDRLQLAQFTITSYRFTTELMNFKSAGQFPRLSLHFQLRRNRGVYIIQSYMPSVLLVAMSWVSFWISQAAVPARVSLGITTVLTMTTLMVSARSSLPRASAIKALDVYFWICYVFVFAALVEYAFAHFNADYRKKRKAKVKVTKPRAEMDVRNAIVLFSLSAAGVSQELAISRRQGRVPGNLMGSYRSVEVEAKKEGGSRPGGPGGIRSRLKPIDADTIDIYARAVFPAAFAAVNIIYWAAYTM
UniProt P18508: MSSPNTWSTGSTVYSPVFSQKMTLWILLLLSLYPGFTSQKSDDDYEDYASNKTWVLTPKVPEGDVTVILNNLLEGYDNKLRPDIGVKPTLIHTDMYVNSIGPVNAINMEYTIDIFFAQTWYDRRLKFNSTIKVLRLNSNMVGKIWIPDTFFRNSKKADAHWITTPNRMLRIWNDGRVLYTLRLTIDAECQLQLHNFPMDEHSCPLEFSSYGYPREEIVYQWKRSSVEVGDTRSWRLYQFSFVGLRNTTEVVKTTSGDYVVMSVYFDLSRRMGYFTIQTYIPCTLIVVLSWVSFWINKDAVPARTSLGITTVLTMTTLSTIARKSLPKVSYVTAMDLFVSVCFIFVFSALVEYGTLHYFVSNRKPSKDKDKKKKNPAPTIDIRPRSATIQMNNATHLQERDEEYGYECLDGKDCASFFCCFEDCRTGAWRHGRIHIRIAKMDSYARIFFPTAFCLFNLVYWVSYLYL
UniProt P19969: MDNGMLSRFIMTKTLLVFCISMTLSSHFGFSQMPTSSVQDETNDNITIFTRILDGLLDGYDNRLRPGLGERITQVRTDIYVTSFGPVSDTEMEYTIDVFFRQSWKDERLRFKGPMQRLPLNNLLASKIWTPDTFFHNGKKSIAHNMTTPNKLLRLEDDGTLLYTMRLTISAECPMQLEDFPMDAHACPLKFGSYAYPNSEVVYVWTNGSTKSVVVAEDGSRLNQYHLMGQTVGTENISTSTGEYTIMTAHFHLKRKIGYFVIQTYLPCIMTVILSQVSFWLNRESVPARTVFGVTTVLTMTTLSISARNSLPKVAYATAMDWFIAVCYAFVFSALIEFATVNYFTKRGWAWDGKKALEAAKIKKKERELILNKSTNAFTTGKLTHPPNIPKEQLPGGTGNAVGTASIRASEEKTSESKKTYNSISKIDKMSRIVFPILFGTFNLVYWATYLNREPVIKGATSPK
UniProt P20236: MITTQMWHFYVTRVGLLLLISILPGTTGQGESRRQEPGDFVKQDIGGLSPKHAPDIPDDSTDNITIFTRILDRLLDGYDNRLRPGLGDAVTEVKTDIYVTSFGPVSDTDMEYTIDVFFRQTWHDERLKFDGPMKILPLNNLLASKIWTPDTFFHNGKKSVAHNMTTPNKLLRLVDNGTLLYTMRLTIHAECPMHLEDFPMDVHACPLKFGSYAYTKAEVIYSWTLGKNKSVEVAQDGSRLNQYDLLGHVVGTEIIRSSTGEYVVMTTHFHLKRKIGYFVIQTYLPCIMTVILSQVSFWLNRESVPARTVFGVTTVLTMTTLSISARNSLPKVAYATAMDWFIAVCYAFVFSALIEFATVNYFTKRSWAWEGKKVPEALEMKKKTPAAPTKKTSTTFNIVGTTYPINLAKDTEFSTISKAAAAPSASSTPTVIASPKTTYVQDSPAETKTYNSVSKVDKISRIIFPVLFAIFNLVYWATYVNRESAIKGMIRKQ
UniProt P23574: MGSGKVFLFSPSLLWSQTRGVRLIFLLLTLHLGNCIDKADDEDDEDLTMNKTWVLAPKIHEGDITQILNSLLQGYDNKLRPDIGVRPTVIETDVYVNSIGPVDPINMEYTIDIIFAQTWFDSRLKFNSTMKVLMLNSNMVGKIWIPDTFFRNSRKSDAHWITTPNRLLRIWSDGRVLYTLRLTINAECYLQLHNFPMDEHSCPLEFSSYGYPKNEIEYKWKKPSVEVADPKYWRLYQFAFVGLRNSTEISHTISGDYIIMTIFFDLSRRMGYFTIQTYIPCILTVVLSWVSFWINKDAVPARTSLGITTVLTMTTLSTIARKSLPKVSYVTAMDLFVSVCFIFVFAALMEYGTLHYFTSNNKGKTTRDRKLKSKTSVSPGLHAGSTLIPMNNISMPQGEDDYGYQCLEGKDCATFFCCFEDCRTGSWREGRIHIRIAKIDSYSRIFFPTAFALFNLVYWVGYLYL
UniProt P28471: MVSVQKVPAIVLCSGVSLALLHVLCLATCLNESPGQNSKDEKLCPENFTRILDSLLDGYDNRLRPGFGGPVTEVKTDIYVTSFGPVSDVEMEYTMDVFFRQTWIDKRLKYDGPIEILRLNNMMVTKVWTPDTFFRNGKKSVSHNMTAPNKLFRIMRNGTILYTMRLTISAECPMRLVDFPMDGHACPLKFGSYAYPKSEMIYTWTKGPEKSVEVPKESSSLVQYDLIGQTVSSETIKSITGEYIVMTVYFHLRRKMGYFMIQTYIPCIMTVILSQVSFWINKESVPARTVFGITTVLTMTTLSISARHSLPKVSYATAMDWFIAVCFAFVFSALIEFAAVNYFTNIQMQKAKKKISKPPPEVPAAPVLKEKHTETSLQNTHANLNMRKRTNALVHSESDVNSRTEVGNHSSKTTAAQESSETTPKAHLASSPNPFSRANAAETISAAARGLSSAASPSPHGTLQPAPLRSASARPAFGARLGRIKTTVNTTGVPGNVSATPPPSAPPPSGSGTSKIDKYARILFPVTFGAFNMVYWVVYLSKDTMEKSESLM
UniProt P28473: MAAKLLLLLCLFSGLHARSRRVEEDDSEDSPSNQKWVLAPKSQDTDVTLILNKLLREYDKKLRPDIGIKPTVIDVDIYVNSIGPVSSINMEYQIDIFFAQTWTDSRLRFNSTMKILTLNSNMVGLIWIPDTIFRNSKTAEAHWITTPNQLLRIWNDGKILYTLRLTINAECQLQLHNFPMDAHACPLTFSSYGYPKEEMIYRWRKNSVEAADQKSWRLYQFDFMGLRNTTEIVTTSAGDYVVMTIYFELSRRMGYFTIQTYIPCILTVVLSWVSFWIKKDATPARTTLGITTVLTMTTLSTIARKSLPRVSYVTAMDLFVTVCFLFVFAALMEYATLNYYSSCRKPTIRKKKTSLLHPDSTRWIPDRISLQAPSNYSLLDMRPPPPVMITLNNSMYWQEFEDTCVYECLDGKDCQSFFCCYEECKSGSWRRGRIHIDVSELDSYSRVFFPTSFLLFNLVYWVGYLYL
UniProt P30191: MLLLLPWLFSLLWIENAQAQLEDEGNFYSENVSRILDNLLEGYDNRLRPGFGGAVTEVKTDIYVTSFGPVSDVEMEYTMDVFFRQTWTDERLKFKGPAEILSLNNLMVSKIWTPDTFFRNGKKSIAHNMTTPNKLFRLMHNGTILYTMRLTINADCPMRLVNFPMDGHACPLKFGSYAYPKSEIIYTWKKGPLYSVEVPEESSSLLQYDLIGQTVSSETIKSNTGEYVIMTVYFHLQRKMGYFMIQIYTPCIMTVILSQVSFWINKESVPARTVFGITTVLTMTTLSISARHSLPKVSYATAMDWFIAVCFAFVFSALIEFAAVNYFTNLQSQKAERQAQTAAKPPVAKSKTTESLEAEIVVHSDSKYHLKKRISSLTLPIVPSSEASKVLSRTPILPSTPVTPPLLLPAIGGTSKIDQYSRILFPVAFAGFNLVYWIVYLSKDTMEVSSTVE
UniProt P62813: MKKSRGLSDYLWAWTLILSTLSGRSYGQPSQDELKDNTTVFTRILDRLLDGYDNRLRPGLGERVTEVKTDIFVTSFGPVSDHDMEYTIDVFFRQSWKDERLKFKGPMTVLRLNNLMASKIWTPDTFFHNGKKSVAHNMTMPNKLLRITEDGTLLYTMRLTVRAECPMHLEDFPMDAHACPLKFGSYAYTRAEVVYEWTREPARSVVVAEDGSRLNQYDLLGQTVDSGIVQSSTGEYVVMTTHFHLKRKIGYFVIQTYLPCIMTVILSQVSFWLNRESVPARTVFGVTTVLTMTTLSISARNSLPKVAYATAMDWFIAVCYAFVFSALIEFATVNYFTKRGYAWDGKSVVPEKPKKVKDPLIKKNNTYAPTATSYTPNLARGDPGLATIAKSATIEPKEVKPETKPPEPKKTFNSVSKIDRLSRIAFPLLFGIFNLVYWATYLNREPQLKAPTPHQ
UniProt P63138: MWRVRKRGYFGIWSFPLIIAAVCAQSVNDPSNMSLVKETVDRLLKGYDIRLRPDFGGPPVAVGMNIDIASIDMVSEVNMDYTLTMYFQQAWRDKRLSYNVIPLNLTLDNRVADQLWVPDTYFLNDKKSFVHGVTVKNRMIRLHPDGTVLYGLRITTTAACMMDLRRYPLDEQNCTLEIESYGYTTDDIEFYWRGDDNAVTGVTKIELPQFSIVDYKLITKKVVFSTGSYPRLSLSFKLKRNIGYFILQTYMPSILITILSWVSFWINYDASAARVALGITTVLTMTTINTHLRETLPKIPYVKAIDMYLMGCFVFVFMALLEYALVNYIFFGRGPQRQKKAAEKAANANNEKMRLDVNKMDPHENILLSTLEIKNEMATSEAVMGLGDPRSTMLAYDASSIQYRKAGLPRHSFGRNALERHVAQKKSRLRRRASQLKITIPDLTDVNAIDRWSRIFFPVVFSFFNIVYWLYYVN
UniProt Q9ES14: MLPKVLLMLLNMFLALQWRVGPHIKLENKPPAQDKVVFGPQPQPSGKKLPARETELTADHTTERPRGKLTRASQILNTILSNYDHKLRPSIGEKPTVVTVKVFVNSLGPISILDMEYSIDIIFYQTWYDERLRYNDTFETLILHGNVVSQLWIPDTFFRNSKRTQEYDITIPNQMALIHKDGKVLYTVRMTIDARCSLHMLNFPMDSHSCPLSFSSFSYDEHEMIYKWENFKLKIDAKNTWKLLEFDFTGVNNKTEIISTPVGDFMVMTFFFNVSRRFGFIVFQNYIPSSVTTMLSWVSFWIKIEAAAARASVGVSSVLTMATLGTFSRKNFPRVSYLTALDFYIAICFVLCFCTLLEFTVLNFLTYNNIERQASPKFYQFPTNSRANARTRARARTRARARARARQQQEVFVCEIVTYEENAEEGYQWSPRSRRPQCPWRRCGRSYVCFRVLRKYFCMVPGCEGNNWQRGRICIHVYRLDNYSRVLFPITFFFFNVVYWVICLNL

`CC(C)n1c(=O)c2c(-c3noc(C4CC4)n3)ncn2c2ccccc21` [PANADIPLON] was tested, and the Ratio was 0.06.

Source: ChEMBL document CHEMBL1129735, “High-affinity alpha-aminobutyric acid A/benzodiazepine ligands: synthesis and structure-activity relationship studies of a new series of tetracyclic imidazoquinoxalines” (J Med Chem, 1996)
